Results published in patent publication US4329353A (priority 1981, dated 1982).

tested on: norepinephrine-induced mortality; experiment: norepinephrine (NOR) test in rats (combined APO-TRY-NOR test); details: Table 3; rat; s.c. per method; norepinephrine 1.25 mg/kg i.v. 120 min after compound
Procedure: I. The combined apomorphine (APO)-, tryptamine (TRY)- and norepinephrine (NOR) test in rats.
The experimental animals used in this test were adult male Wistar rats (weight 240±10 g). After an overnight fast, the animals were treated subcutaneously (1 ml/100 g) with an aqueous solution of the compound under investigation (time=zero) and put in isolated observation cages. Thirty minutes thereafter (time=30 minutes) 1.25 mg/kg of apomorphine hydrochloride (APO) was injected intravenously and the rats were observed over a 1 hour period for the presence or absence of the following apomorphine-induced phenomena: agitation and stereotypic chewing. At the end of this 1 hour period (time=90 minutes) the same animals were injected intravenously with 40 mg/kg of tryptamine (TRY) and the presence of the typical tryptamine-induced bilateral tonic seizures was noted. Two hours after pretreatment (time=120 minutes) finally, the same animals were challenged with 1.25 mg/kg intravenously of norephinephrine (NOR) and possible mortality was looked for up to 60 minutes later.
The tables 1, 2 and 3 give the ED50 -values of a number of the compounds under consideration. As used herein, the ED50 -value represents the dose which protects 50% of the animals from apomorphine-, tryptamine- or norepinephrine-induced phenomena.

Structure (SMILES)	ED50 -(NOR)
CCOC(=O)C1(c2ccccc2)CCC(N2CCC(n3c(=O)[nH]c4ccccc43)CC2)CC1 (stereo not shown)	1.25 mg/kg
COc1ccc(C2(C(=O)N(C)C)CCC(N3CCC(n4c(=O)[nH]c5ccccc54)CC3)CC2)cc1 (stereo not shown)	5 mg/kg
CCOC(=O)C1(c2ccc(F)cc2)CCC(N2CCC(n3c(=O)[nH]c4ccccc43)CC2)CC1 (stereo not shown)	2.5 mg/kg
CN(C)C(=O)C1(c2ccc(F)cc2)CCC(N2CCC(n3c(=O)[nH]c4ccccc43)CC2)CC1 (stereo not shown)	1.25 mg/kg
